Laboratory results taken from PMC6292454 (Biochemical Journal, 2018).

Target: NA2009wt (recombinant neuraminidase) (Influenza A virus, UniProt C3W6G3)
Test: biochemical
Type: binding, A/California/07/2009 (H1N1) influenza virus

## CCC(CC)O[C@@H]1C=C(C(=O)O)C[C@H](N)[C@H]1NC(C)=O [compound 4, oseltamivir carboxylate, reference compound]
  Ki: 0.031 ± 0.006 µM
